Measured values: patent publication US20250304549A1, “HYDROXYAMIDE DERIVATIVE AND USE THEREOF” (SICHUAN HUIYU PHARMACEUTICAL CO., LTD., priority 2022, published 2025)

Amino acid sequences for entries named in this document (tags omitted).
UniProt Q13547, whole entry: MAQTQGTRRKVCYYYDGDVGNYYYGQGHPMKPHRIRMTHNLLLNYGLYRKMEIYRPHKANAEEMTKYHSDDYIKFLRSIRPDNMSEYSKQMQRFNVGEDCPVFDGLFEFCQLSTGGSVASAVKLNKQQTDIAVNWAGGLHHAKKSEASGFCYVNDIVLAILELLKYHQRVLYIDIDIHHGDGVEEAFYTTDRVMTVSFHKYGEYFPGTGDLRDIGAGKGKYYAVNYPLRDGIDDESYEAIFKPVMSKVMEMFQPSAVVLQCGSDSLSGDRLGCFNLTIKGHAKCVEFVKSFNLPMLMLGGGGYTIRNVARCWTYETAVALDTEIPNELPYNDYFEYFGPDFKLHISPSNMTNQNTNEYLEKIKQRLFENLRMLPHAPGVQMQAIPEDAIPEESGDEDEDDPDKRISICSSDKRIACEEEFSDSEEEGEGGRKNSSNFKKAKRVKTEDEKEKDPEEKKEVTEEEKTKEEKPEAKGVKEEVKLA

Experiments:
NCI-H1417 cells = test: In vitro cell inhibition assay - H1417 cell proliferation (CellTiter-Glo); conditions: read-out: H1417 IC50, H1417 small cell lung cancer cell proliferation, tested form: formate
NCI-H526 cells = test: In vitro cell inhibition assay - NCI-H526 cell proliferation (CellTiter-Glo); conditions: read-out: H526 IC50, H526 small cell lung cancer cell proliferation, 5 days, tested form: formate
HDAC1 = HDAC1 (Homo sapiens (Human), UniProt Q13547); test: In vitro enzyme inhibition assay - HDAC (HDAC-Glo I/II), HDAC1; type: biochemical; conditions: read-out: HDAC IC50 (nM) HDAC 1; tested form: formate
pan-HDAC = test: In vitro enzyme inhibition assay - HDAC (HDAC-Glo I/II), pan-HDAC; type: biochemical; conditions: read-out: HDAC IC50 (nM) Pan-HDAC; tested form: formate
NCI-H69 cells = test: In vitro cell inhibition assay - NCI-H69 cell proliferation (CellTiter-Glo); conditions: read-out: H69 IC50, H69 small cell lung cancer cell proliferation, tested form: formate
LSD1 = LSD1 (Homo sapiens (Human), UniProt O60341); test: In vitro enzyme inhibition assay - LSD1 (HTRF); type: biochemical; conditions: read-out: LSD1 IC50; tested form: formate

| IC50 (HDAC1) [nM] | Compound | IC50 (NCI-H1417 cells) [nM] | IC50 (NCI-H526 cells) [nM] | IC50 (pan-HDAC) [nM] | IC50 (NCI-H69 cells) [nM] | IC50 (LSD1) [nM] |
| --- | --- | --- | --- | --- | --- | --- |
| 0.64 | COc1ccc(-c2cnc(N3CCC(NCc4ccc(/C=C/C(=O)NO)cc4)CC3)c(C#N)c2-c2ccc(C(F)(F)F)nc2)cc1O | 14.1 | 11.8 | 3.2 | 4.16 | 24.7 |
|  | COc1ccc(-c2cnc(N3CCC(NCc4ccc(/C=C/C(=O)NO)cc4)CC3)c(C#N)c2-c2ccc(C(F)F)nc2)cc1O | 7.41 | 7.18 | 0.59 | 3.11 | 245 |
